Among the data in BindingDB's records for doi:10.1016/s0960-894x(00)00601-6 (National Cancer Istitute-Frederick Cancer Research and …, 2001) are IC50 values, retold here.

This assay in a line: Inhibition of RANTES-induced migration of human embryonic kidney (CCR1/HEK) cell transfectants.

Take `CSCC[C@H](NC(=O)c1cc(C(=CCC[C@H]2CC[C@@]3(C)C(CC[C@H]4[C@@H]5CC[C@H](C(C)CCCC(C)C)[C@@]5(C)CC[C@@H]43)C2)c2cc(Cl)c(O)c(C(=O)N[C@@H](CCSC)C(=O)O)c2)cc(Cl)c1O)C(=O)O` (stereo partly specified) [2-(5-{1-[3-(1-carboxy-3-methylsulfanylpropylcarbamoyl)-5-chloro-4-hydroxyphenyl]-4-[1-(1,5-dimethylhexyl)-9a,11a-dimethylperhydrocyclopenta[a]phenanthren-7-yl]-1-butenyl}-3-chloro-2-hydroxyphenylcarboxamido)-4-methylsulfanylbutanoic acid]: it took 12.7 µM to reach half-maximal inhibition (IC50).

The IC50 is the midpoint of a concentration-inhibition curve. Lower therefore signals greater potency.
